Only a part is listed here, and it is no random draw. The source made the active and inactive calls. Cut-off read from the data, not from the text of the source: active = activity change below about -80%; inconclusive = between about -30% and that limit; inactive = weaker than that.
Assay: Small Molecules that selectively kill Giardia lamblia: qHTS;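 note: parasites exposed to compound for two days anaerobically before the ATP read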
Settings: Giardia lamblia trophozoite viability; at 7.66 µM; hits give low values
Excerpt: Giardia lamblia is a human pathogen afflicting impoverished nations, and the most common cause of outbreaks of diarrhea in the United States. Giardia has been classified by the CDC as a category B bioterrorism organism. The favored anti giardiasis drugs in the US are metronidazole or tinidazole, compounds that have undesirable side effects. Moreover, increasing resistance to drug regimes and recurrence are a concern. It is thus clear that alternative drug treatments are needed.
In a collaboration between the University of Maryland, College Park and the NIH Chemical Genomics Center, a bioluminescence Giardia viability assay based on the trophozoites' ATP content was developed. This assay is suitable for high throughput screening, and miniaturized the assay for compound screening in 1536-well plates. The goal of the project is to screen the Molecular Libraries Small Molecule Repository (MLSMR) for compounds that selectively kill Giardia trophozoites.
NIH Chemical Genomics Center [NCGC]
NIH Molecular Libraries Probe Centers Network [MLPCN]
Assay Submitter (PI): Osnat Herzberg, University of Maryland, College Park, MD.
1. Dispense 2 ul/well media
2. Dispense 23 nl/well compounds
3. Dispense 4 ul/well Giardia trophozoites at a concentration of 100 cells/well
4. […]
5. Dispense 4 ul/well ATPLite 1-Step Luminescence assay kit […]
7. Read luminescence signal on ViewLux plate reader
% is set by controls: 0 for no effect and ±100 for the full control effect.

SMILES	activity change
CCC(=O)N(c1ccccc1)C1(COC)CCN(CCc2cccs2)CC1	inactive: 4.86%
CCC(=O)N(c1ccccc1)C1(COC)CCN(CCn2nnn(CC)c2=O)CC1	inactive: 32.2%

From PubChem BioAssay AID540267 (National Center for Advancing Translational Sciences (NCATS), 2011)
